Data on one molecule can be found in ChEMBL document CHEMBL1157475, “Selective influence on contextual memory: physiochemical properties associated with selectivity of benzodiazepine ligands at GABAA receptors containing the alpha5 subunit” (J Med Chem, 2008).

By UniProt entry, the sequences of proteins in these tests, tags left out. Where a name states a change or a piece, a line headed by the entry shows the natural chain unless it says otherwise.
UniProt P18507: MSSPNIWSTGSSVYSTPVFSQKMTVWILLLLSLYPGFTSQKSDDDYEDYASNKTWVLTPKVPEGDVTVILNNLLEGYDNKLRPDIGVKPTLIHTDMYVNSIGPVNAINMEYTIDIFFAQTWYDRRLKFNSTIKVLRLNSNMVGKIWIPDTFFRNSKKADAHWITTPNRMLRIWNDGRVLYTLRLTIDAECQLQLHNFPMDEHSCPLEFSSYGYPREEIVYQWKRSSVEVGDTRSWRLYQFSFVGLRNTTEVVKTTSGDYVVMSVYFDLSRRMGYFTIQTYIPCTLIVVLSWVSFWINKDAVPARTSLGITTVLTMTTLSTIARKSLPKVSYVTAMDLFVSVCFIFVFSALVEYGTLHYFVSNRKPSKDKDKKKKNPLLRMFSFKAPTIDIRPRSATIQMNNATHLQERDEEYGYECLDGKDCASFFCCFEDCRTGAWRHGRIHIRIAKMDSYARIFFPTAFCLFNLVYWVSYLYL
UniProt P47870: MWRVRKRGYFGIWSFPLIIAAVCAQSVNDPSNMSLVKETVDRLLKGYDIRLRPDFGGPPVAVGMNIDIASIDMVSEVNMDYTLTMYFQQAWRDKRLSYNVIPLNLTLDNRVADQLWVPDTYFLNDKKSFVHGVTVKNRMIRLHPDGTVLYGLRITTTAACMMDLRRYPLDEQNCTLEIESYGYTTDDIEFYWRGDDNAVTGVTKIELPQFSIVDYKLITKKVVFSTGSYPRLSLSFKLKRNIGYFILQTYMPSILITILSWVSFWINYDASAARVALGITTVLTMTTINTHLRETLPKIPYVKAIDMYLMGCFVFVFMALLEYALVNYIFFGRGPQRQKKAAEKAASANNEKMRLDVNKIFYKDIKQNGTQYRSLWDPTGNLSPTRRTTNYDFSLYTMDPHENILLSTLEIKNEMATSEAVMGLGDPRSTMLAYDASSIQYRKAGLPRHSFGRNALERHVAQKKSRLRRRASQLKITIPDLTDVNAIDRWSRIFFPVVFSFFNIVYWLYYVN

By Kd is commonly meant the equilibrium constant for the complex coming apart.

For the assay, the target named is T1, Gamma-aminobutyric acid receptor subunit alpha-5 (Homo sapiens, UniProt P18507+P31644+P47870).
T1 sequence (P31644 whole entry): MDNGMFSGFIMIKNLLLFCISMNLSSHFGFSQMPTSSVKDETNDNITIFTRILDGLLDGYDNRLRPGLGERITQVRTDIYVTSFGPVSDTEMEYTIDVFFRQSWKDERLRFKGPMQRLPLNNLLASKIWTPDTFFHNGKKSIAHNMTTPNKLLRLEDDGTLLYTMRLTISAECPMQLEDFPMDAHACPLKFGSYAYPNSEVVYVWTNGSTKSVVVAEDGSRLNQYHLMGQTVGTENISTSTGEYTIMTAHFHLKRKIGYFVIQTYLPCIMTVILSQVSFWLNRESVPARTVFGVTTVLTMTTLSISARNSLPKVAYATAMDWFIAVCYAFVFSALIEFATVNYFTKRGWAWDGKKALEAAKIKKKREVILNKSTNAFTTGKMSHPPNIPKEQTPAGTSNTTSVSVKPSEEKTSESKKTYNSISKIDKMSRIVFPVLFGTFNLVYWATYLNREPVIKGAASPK
In words: Binding affinity to GABAA alpha-5-beta-2-gamma-2 receptor. The method, boiled down:
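Sf-9 insect cells infected with baculovirus carrying α5, β2 and γ2 subunits in equimolar ratio (2 MOI), harvested 60 h post-infection, then homogenized in 50 mM Tris-HCl pH 7.7. Incubated 90 min at 0 °C in triplicate; filtration and scintillation counting.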

`CCOC(=O)c1cc2c(cn1)[nH]c1ccccc12`: the Kd was 27 nM.
